# Laboratory results taken from ChEMBL document CHEMBL5113516, “2-(Fluoromethoxy)-4'-(S-methanesulfonimidoyl)-1,1'-biphenyl (UCM-1306), an Orally Bioavailable Positive Allosteric Modulator of the Human Dopamine D1 Receptor for Parkinson's Disease” (J Med Chem, 2022).
# The chains behind the UniProt entries cited, without tags or fusion partners.
# UniProt P21728, whole entry: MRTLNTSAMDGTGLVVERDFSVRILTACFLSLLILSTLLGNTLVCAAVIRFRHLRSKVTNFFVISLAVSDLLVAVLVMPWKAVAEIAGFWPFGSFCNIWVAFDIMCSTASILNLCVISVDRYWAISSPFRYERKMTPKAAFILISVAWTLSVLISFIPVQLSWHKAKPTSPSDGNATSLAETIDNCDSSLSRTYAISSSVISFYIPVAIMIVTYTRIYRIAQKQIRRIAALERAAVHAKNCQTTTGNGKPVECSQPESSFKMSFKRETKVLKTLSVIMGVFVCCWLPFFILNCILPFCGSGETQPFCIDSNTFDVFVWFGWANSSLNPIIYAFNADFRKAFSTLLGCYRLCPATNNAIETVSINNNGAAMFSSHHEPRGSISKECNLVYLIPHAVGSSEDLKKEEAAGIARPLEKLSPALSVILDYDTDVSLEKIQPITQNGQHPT
# Target: D(1A) dopamine receptor (Homo sapiens) (UniProt P21728)
# Test: Positive allosteric modulation of D1R expressed in human SK-N-MC cells assessed as potentiation of DA-induced cAMP production pretreated with compound for 15 mins followed by dopamine addition measured after 15 mins by HTRF assay relative to control
# Format: functional, cell-based
# Conditions: filed as positive allosteric modulator, dose 0.1-10 µM, time 30.0 min
# Summary of the method: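 Human SK-N-MC neuroblastoma cells with endogenous D1R, seeded at 1×10^4 cells/well in Opti-MEM with 500 μM IBMX. Preincubated with 10 μM compound for 15 min at 25 °C, then dopamine concentration–response for 15 min at 25 °C. Lysed and cAMP read by HTRF. Change in dopamine Emax used; >20% potentiation taken as a potential PAM.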
smiles,measurement,value
O=Cc1ccc(-c2ccccc2OCF)cc1,Emax,82%
